Consider one compound from patent publication US10000454B2, “Antidiabetic tricyclic compounds” (Merck Sharp & Dohme Corp., priority 2014, dated 2018).

Chains of the proteins cited; added tags and fusions are not shown.
UniProt O14842, whole entry: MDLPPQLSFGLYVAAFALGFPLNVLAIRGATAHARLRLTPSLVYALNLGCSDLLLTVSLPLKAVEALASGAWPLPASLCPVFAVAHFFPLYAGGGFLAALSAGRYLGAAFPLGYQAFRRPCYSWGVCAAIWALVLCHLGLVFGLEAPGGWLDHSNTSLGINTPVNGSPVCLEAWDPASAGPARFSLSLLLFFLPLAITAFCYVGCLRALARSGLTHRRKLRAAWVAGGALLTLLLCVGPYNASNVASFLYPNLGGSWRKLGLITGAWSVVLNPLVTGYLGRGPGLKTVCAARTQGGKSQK

Assay [1] has as its target T1, Human GPR40 (Homo sapiens, UniProt O14842). The assay can be described thus: FLIPR assay, agonist-induced calcium mobilization. The conditions noted are these: read-out: Human GPR40, FLIPR, EC50, GPR40/CHO NFAT BLA cells. How it is done: (§1) Human and mouse GPR40 stable cell-lines were generated in CHO cells stably expressing NFAT BLA (Beta-lactamase). A human GPR40 stable cell-line was generated in HER cells stably expressing the aequorin expressing reporter. The expression plasmids were transfected using lipofectamine (Life Technologies) following manufacturer's instructions. Stable cell-lines were generated following drug selection.
FLIPR (Fluorimetric Imaging Plate Reader, Molecular Devices) assays were performed to measure agonist-induced calcium mobilization of the stable clones. For the FLIPR assay, one day before assay, GPR40/CHO NFAT BLA cells were seeded into black-wall-clear-bottom 384-well plates (Costar) at 1.4×10e4 cells/20 μL medium/well. The cells were incubated with 20 μl/well of the assay buffer (HMS, 0.1% BSA, 20 mM HEPES, 2.5 mM probenecid, pH 7.4) containing 8 μM fluo-4, AM, 0.08% pluronic acid at room temperature for 100 minutes. Fluorescence output was measured using FLIPR. Compounds were dissolved in DMSO and diluted to desired concentrations with assay buffer. 13.3 μL/well of compound solution was added.
(A change in cytosolic calcium serves as a functional read-out for many receptors and channels.)

Assay [2] addresses T1, Human GPR40. Briefly: Inositol Phosphate Turnover (IP1) Assay. Conditions: read-out: Human GPR40 IP1, EC50; HEK cells stably expressing human GPR40, CisBio IP-One kit. How it is done: as §1
The assay is performed in 384-well format. HEK cells stably expressing human GPR40 are plated at 15,000 cells per well in growth medium (DMEM/10% fetal calf serum). Cell plates are then incubated 16 hours at 37 degrees in a 5% CO2 incubator.
Measurement of Inositol Phosphate Turnover (IP1) is performed using the CisBio IP-One kit (Part number 62IPAPEB). After the 16 hour incubation, the cells are washed with HEPES buffer and 10 ul of stimulation buffer (prepared as described in the kit) is added to each well. In a separate plate, compounds are diluted in DMSO (400-fold over the final concentration in the assay well) and 25 nl is acoustically transferred to the appropriate well in the assay cell plate. The plates are then incubated for 60 minutes at 37 degrees. […] The plates are then read in a Perkin Elmer EnVision or equivalent reader able to measure FRET. […]

Consider `CC1(C)CC(c2ccccc2C(F)(F)F)c2cc(COc3ccc4c(c3)C[C@H]3[C@H](C(=O)O)[C@@H]43)ccc21` (some centres unmarked), for which the values for the EC50 on Human GPR40 [1] and at Human GPR40 [2] were 19.4 nM and 70.4 nM, respectively.
